Biological target: hGal-1 (Homo sapiens, UniProt P09382)
Test: ITC
Type: binding

The chains behind the UniProt entries cited, without tags or fusion partners. Residues count along the entry.
UniProt P09382, 2-135: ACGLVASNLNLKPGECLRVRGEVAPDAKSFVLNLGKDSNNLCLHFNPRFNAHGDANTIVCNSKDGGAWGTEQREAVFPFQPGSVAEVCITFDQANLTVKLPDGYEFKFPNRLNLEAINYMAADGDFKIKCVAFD

SMILES: OC[C@H]1O[C@@H](S[C@@H]2O[C@H](CO)[C@H](O)[C@H](O)[C@H]2O)[C@H](O)[C@@H](O)[C@H]1O [TDG]
- Kd: 82.7 ± 2.9 µM

Reference: article PMC7839768 (Chemistry (Weinheim an Der Bergstrasse, Germany), 2020)
